# scFv variants of Ab-14 (light chain) against a SARS-CoV-2 spike peptide

The measurements come from Li et al. 2023 (doi:10.1038/s41467-023-39022-2) through the FLAb antibody collection.

Antigen: PDVDLGDISGINAS, a 14-residue peptide of the SARS-CoV-2 spike HR2 region.

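Phage display of a naive human antibody library on the peptide gave the parent. Designed CDR sequences, proposed from the first random library and measured here. Group labels follow the data file (Ctrl: baseline library sampled from a position-specific scoring matrix, with some repeated check sequences; En: ensemble of fine-tuned language models; GP: Gaussian process model; GPLM: also part of the Gaussian process libraries; HC: hill climbing; Gen: genetic algorithm; Gibbs: Gibbs sampling; a sequence that several methods proposed may carry one label only). The assay is AlphaSeq: two haploid yeast populations carry antibody and antigen on their surface. After mating in shaken culture at 30 °C for 16 h, diploids were selected and their barcode pairs sequenced. Read counts were normalised to the haploid input and turned into Kd by a linear fit to BCL2-family pairs of known affinity, for each replicate. Mating was done six times.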

Parent: Ab-14, a human scFv built as VH, the linker GGGGSGGGGSGGGGS, VL. Only the CDRs of the light chain vary.
VH: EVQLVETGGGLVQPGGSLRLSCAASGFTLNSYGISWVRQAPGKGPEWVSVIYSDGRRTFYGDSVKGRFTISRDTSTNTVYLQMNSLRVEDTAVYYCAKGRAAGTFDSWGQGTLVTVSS
VL: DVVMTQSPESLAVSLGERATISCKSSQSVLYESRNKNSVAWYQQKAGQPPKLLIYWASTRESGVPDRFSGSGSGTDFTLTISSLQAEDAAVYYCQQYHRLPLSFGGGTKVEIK

Variants are written as CDR1, CDR2 and CDR3 of the light chain (limits as in the source). Parent: KSSQSVLYESRNKNSVA, WASTRES, QQYHRLPLS.
The read-out is the apparent dissociation constant on a log10 scale (nM): the lower, the stronger.
Averages over replicates are reported, and they cover detected replicates only.
A pair that was not seen in any replicate is written "no signal"; this usually means weak binding, but a binder can also be missed.
Three control strains display no target. For all light chain designs, 4% of the pairings with them gave a signal, with a median of 2.64 and one signal in twenty below 1.59, so weak values seen in few replicates may be background.
The authors' rule: three or more of the six replicates give a measured affinity, fewer mean a poor binder.
Of ten entries with the parent sequence, four were seen in most replicates (averages 0.34 to 2.37), three in one and three in none, so single entries are noisy.
The range of this assay differs from that of the first round, and the authors advise against merging the two.

| CDR-L1 | CDR-L2 | CDR-L3 | group | mean log10 Kd (nM) | detected |
|---|---|---|---|---|---|
| KSLQSWLYESRNKNSVA | QASTREQ | QQYHRLPLS | GP_HC | 0.58 | 6/6 |
| KMSQSYLYESRNKNSVA | WASTRES | QQYHRLPLS | Ctrl | 0.25 | 6/6 |
| KSSQSQPYESRNKNSVA | NASQRYQ | QQYHRLPLS | GP_Gibbs | 0.12 | 6/6 |
| KLTQHMRFEQKKKNNIA | EVTTRSK | QQYYRLPLA | En_Gen | no signal | 0/6 |
| KLSQAVLYESRNKNSVA | WASTRES | QQYHRLPLS | Ctrl | 0.32 | 6/6 |
| KSSQSVPYESRNKNGVA | WASTRES | QQYHRLPLS | Ctrl | no signal | 0/6 |
| VFQQQWDGVTLTNSSVA | NVDERME | QQYNRLPLM | En_Gibbs | 2.65 | 6/6 |
| KLSCSWLMESRNSNSVA | HASKRES | QQYHRLPLS | GP_Gibbs | 0.58 | 6/6 |
| KIDPYEAMAGKNKESIA | EYAVTLT | QQYARLPLS | En_Gibbs | 2.57 | 2/6 |
| ALTNEPESVDHHLNNIA | STSKRCM | QQYARLPLS | En_Gibbs | 0.37 | 6/6 |
| KLRQSTLYESRNKNEVA | HASTRES | QQYHRLPLS | GP_HC | 0.69 | 6/6 |
| KISWSVLYESRNKNSVA | HASTRES | QQCHRLPLS | Ctrl | no signal | 0/6 |
| TISTFMRYESSLKNAIA | NAQTRES | QQYHRLPIS | En_HC | no signal | 0/6 |
| KWSQSVLGEQRNKNSVA | DASTRES | QQYHRLPLS | GP_HC | -0.17 | 6/6 |
| KQSQSVLYESRNKNSVA | QASTRES | QQYHRLPLS | GPLM_HC | -0.11 | 6/6 |
| RLWQQMYGFNIHANAIA | EGKERYW | QQYARLPLS | En_Gibbs | 2.14 | 4/6 |
| KMSQSVLAESRTKNSVA | KASTRES | QQYHRLPLS | Ctrl | 0.30 | 6/6 |
| KISMLQRYESQNKNSIA | EMSRREN | QQYHRLPLA | En_HC | 1.51 | 6/6 |
| KFVQSWLYESRNKNAVA | HASTRCS | QQYHRLPLS | GP_Gibbs | 0.46 | 6/6 |
| KVSQSVLYEDRNKNSVA | NASTRCS | QQYHRLPLS | GP_Gen | -0.34 | 6/6 |
| KCSQSVLYESRNKNSVA | NASQRES | QQYHRLPLS | GP_Gen | -0.53 | 6/6 |
| KSSQSVLYESRNKNSVA | WASTRES | QQYHYMPLS | Ctrl | 3.29 | 1/6 |
| MISQLMNMGQFAINSVA | QATIRNS | QQYDRLPLT | En_Gen | 1.86 | 5/6 |
| KSSQSVGYESRNKNSCA | WASTRES | QQYMRLPLS | Ctrl | no signal | 0/6 |
| KLQQSMLYMDRNANNVA | NASTRLS | QQYHRLPLS | GP_Gibbs | -0.24 | 6/6 |

The remaining entries, values ahead:

| mean log10 Kd (nM) | detected | CDR-L1 | CDR-L2 | CDR-L3 | group |
|---|---|---|---|---|---|
| 0.77 | 6/6 | KLAMILSMEFGTYHGVA | DADHKAD | QQYNRLPLS | En_Gibbs |
| -0.03 | 6/6 | KLSQSVLYESRNSNSVA | NASQRES | QQYHRLPLS | GP_Gen |
| 1.04 | 6/6 | KIRWQQYDQSEMEANIA | QESTRHQ | QQYFRLPLS | En_Gibbs |
| 1.33 | 6/6 | QSSQSVLYESRNKNSVA | SASTRES | QQYHRLPLS | Ctrl |
| 1.77 | 5/6 | KLYNRGEGSQKVDRSIA | EMQTRCE | QSYQRLPLS | En_Gibbs |
| 2.02 | 6/6 | ALSDWEWAGEENINAVA | DRSALEW | QQYQRLPLS | En_Gibbs |
| 0.27 | 6/6 | MISQLMNMGQFAINSVA | QASIRNI | QQYDRLPLA | En_Gen |
| 0.31 | 6/6 | GMSDSMTETIADANHIA | DAEARDV | QQYARLPLI | En_Gibbs |
| 2.32 | 3/6 | MLSISHQVESINKSNVA | EMVTRES | QQYDRLPLS | En_HC |
| 0.17 | 6/6 | KLSQSVHYESRNKNSVA | NASTRES | QQYHRLPLS | GP_Gen |
| 1.33 | 5/6 | KSSQSWVYESRNKNSVA | WASTRES | QQYHRLPLS | Ctrl |
| 1.85 | 4/6 | KSSESVCYESRNKNSVA | WASMRES | QQYHRLPLS | Ctrl |
| 1.19 | 5/6 | KSTQSVLYESGNKNSVA | WASTRES | QQYHRLPLS | Ctrl |
| 2.08 | 4/6 | KLTQSVLYESRNKNSVA | WASTRDS | QQYWRLPIS | Ctrl |
| -0.13 | 6/6 | KLSQSVPYESRNKNSVA | NASTRSS | QQYHRLPLS | GP_Gen |
| 1.94 | 2/6 | KLQNFSQEDNKMWNNVA | DMTMVHT | QQYNRLPLE | En_Gibbs |
| 2.09 | 6/6 | MISQLYNMGTFAINSVA | QAETRNE | QQYDRLPLM | En_Gen |
| 0.91 | 6/6 | MISQSFLIGSRIKNSVA | QTSTRES | QQYDRLPLS | En_HC |
| 0.20 | 6/6 | KSSQSVCYGDRMKNSVA | NASTREQ | QQYHRLPLS | GP_Gibbs |
| no signal | 0/6 | KISQSVLYEVQNKNSVN | WASTRES | QQYHRLPLS | Ctrl |
| -0.12 | 6/6 | KVSQSVLYESRNKNSVA | EASCRES | QQYHRLPLS | GP_Gen |
| 1.10 | 6/6 | ILSDHAVNQYDEADSIA | DKTENAV | QQYARLPLS | En_Gibbs |
| 2.48 | 1/6 | KLSGMMASSKFAKDNVA | ENNTREY | QQYDRLPLS | En_Gen |
| 1.79 | 6/6 | MIYGAAMELGRAYNSIA | DNVTRYD | QQYERLPLS | En_Gen |
| 1.82 | 5/6 | MVTQMAMTGMMSKRSVA | NAEMREQ | QQYHRLPLI | En_Gen |

From the list, the first 6 with no signal in any replicate:

CDR-L1	CDR-L2	CDR-L3	group	mean log10 Kd (nM)	detected
KLTQHMRFEQKKKNNIA	EVTTRSK	QQYYRLPLA	En_Gen	no signal	0/6
KSSQSVPYESRNKNGVA	WASTRES	QQYHRLPLS	Ctrl	no signal	0/6
KISWSVLYESRNKNSVA	HASTRES	QQCHRLPLS	Ctrl	no signal	0/6
TISTFMRYESSLKNAIA	NAQTRES	QQYHRLPIS	En_HC	no signal	0/6
KSSQSVGYESRNKNSCA	WASTRES	QQYMRLPLS	Ctrl	no signal	0/6
KISQSVLYEVQNKNSVN	WASTRES	QQYHRLPLS	Ctrl	no signal	0/6